# Values of other authors in patent US20070264702A1 (priority 2003, published 2007).
# Details: cited from earlier work
substance,measurement,value
salicylate,therapeutic doses measured in plasma,higher than 4.6 mM
